Results as given in PubChem BioAssay AID568 (Sanford-Burnham Center for Chemical Genomics, 2006).
This is a selection; strong and weak results do not stand in their true shares. Potency and affinity values are given separately. Activity calls are given as the source filed them. The rule behind the calls is not given here.

The chains behind the UniProt entries cited, without tags or fusion partners.
UniProt P11142, whole entry: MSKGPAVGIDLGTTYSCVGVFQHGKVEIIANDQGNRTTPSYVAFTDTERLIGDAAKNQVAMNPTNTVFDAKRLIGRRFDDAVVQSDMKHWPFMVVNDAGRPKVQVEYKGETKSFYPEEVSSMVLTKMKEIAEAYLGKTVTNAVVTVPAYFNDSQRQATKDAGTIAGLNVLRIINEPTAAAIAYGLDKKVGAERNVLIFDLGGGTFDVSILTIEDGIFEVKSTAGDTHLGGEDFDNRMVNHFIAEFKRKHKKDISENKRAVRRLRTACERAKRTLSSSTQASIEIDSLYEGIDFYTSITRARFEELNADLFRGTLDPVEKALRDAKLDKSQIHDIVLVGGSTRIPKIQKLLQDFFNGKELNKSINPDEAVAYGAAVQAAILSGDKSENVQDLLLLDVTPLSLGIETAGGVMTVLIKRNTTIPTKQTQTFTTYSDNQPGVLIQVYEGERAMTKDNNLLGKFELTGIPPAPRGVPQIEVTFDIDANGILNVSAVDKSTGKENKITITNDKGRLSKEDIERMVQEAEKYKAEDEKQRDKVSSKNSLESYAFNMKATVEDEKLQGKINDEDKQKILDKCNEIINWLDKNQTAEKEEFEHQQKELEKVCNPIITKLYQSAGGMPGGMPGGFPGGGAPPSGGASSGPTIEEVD

Molecular target: Heat shock cognate 71 kDa protein (Homo sapiens) (UniProt P11142)
Test: Hsc70 inhibitors, probe displacement, primary screen, biochemical, fluorescence polarization (AID 568)
Conditions: mP, at 20 µM, hits give high values

SMILES	displacement
N/C(=N\O)c1c(N)no[n+]1[O-]	inactive: -0.7%
c1ccc(CN2CCC(Nc3ccccc3)CC2)cc1	inactive: -3.5%
Fc1ccccc1NC1CCN(Cc2ccccc2)CC1	inactive: 0.8%
CCC(CO)(C(=O)OC1CN2CCC1CC2)c1ccccc1 (stereo not given)	inactive: -0.7%
CCOc1ncccc1C(=O)NCC1(N2CCOCC2)CCCCC1	inactive: -7.9%
O=C(NCC1(N2CCOCC2)CCCCC1)c1cc2ccccc2o1	inactive: 5.5%
O=C(OC1CN2CCC1CC2)C1c2ccccc2Oc2ccccc21 (stereo not given)	inactive: -4.6%
COc1ccc(NC2CCN(CCc3ccccc3)CC2)c(OC)c1	inactive: -4.7%
O=C(NCC1(N2CCOCC2)CCCCC1)c1cc(=O)[nH]c2ccccc12	inactive: 1.6%
N#CC1(Nc2ccccc2)CCN(CCc2ccccc2)CC1	inactive: 2.3%
